Measurements as given in patent publication US10028956B2, “Methods of treating various cancers using an AXL/cMET inhibitor in combination with other agents” (Ignyta, Inc., priority 2013, dated 2018).

Amino acid sequences for entries named in this document (tags omitted). Residues count along the entry.
UniProt P08581, 25-1390: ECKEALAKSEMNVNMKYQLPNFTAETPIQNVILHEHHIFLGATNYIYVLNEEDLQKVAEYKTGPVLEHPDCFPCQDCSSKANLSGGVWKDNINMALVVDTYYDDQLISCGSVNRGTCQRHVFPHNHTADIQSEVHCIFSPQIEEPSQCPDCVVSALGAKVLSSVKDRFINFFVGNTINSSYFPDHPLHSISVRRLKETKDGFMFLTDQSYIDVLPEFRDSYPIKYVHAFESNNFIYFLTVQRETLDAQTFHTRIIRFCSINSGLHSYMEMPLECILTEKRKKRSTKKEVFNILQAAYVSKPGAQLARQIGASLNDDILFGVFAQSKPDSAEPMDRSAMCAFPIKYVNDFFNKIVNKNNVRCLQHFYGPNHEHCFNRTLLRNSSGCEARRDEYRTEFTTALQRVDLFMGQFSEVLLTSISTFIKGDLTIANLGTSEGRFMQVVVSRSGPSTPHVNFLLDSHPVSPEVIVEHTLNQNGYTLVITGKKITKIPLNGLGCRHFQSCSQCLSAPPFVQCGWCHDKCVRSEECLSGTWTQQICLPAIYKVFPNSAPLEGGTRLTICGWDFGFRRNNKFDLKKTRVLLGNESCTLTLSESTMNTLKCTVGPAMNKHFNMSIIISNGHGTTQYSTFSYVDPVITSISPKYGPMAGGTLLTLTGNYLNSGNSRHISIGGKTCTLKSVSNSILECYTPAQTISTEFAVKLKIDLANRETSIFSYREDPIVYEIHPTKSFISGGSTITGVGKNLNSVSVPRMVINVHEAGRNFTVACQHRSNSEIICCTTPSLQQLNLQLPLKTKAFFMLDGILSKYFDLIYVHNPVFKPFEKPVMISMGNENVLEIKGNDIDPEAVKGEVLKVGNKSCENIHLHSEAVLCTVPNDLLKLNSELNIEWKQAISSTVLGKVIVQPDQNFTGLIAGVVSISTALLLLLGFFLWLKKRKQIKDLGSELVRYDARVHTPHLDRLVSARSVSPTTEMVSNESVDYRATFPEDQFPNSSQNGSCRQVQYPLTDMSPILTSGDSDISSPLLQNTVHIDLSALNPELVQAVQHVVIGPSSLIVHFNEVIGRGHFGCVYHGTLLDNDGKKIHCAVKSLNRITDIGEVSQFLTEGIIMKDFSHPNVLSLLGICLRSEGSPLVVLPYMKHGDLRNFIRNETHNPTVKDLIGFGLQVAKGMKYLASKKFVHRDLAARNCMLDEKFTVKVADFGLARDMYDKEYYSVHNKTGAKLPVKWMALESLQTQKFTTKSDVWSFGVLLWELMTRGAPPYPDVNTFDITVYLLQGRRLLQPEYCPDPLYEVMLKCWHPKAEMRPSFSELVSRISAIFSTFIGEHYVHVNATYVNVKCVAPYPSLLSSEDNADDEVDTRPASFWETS

Columns and labels:
AXL [1] = molecular target: T1, AXL (Homo sapiens, UniProt P30530); experiment: Cellular AXL inhibition in AXL-transfected 293GT cells; type: cell-based; settings: AXL-transfected 293GT cells vs recombinant enzyme
T1 sequence (P30530 26-894): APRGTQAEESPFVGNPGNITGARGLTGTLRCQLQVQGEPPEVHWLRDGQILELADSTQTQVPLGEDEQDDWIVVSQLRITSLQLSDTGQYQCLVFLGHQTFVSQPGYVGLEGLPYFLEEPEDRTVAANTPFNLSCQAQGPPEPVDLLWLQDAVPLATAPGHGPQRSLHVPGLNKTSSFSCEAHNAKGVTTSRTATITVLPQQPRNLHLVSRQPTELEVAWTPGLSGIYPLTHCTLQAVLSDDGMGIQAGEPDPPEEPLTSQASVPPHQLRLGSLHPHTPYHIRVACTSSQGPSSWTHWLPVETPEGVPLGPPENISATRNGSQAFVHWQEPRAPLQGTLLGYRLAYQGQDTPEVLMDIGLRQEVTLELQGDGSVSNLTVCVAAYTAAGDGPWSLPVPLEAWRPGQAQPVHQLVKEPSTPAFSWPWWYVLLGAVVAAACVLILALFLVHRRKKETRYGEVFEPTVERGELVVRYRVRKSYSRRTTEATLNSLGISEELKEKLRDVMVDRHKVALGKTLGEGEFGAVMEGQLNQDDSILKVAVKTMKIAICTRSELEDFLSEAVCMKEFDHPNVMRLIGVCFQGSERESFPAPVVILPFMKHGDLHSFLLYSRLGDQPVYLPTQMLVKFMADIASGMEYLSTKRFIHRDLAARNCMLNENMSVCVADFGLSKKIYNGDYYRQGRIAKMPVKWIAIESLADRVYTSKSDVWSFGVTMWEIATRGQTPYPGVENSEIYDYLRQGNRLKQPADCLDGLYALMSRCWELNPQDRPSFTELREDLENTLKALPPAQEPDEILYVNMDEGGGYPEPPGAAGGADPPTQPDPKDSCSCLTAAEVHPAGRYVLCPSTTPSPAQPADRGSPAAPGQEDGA

AXL [2] = molecular target: T1, AXL; settings: from time t0 to tmax
c-Met = c-Met (Homo sapiens, UniProt P08581); settings: time-dependent inhibition

## COc1cc2nccc(Oc3ccc(NC(=O)c4cn(C(C)C)c(=O)n(-c5ccc(F)cc5)c4=O)cc3F)c2cc1OC [CEP-40783, 3-(4-Fluorophenyl)-1-isopropyl-2,4-dioxo-1,2,3,4-tetrahydropyrimidine-5-carboxylic acid [4-(6,7-dimethoxyquinolin-4-yloxy)-3-fluorophenyl]-amide]
AXL [1]
  fold more active in cells compared to recombinant enzyme: 27 fold
AXL [2]
  fold shift in the IC50 value, AXL: 35 fold
c-Met
  fold shift in the IC50, c-Met: 38 fold
